## Apparent affinities of Ab-14 variants for a coronavirus HR2 peptide

Reference: Li et al. 2023, doi:10.1038/s41467-023-39022-2. File: FLAb, binding data.

Target: peptide PDVDLGDISGINAS, taken from heptad repeat 2 (HR2) of SARS-CoV-2 spike.

Parent scFv Ab-14: VH joined to VL by the linker GGGGSGGGGSGGGGS. Changes lie in the heavy chain CDRs alone.
VH: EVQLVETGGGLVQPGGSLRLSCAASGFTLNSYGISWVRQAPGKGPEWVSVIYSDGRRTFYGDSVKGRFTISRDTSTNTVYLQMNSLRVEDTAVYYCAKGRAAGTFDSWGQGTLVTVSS
VL: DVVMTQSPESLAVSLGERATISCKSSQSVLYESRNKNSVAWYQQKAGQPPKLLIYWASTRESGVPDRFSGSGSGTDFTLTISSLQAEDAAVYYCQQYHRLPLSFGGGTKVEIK

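The variants were designed computationally from a first round of random CDR variants and then made and measured. Several design methods are mixed in this list. AlphaSeq pools MATa yeast showing the antibodies with MATalpha yeast showing the peptide. The frequency of each diploid, read from paired DNA barcodes, reflects how well the two displayed proteins bind. A regression on co-assayed BCL2-family reference pairs converts the normalised counts of each replicate to an apparent Kd. There are six technical replicates.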

Each variant is given by its three heavy chain CDRs, as the data file delimits them; those of the parent are GFTLNSYGIS, VIYSDGRRTFYGDSVK, GRAAGTFDS. Values are log10 of the apparent Kd in nM; lower means stronger binding. "n.d." means that the variant was in the library but no mating with the target was seen in that replicate; the authors take this as a sign of poor binding, and no number exists.

CDR-H1	CDR-H2	CDR-H3	log10 Kd (nM) by replicate
GFDLNEYGIS	VIYADGMRTFYADSVK	GNQAGTFDT	0.02 -0.66 -0.81 -0.73 -0.65 -0.30
GFDLNTYGIS	VIYSDGRRTFYIDSVK	GQAAGTFDS	-0.09 -0.15 -0.43 -0.29 -0.42 -0.26
GFTLNSYGIS	VIYSDGRRTFYIDSVK	GKTAGTFDS	n.d. n.d. n.d. n.d. 2.69 n.d.
GFTIDSYGIS	VIYSDGRRTFYDDEVK	DRAKGTFDN	n.d. n.d. n.d. n.d. n.d. n.d.
GFDIMEYGVS	VIYADGVRTAYSQDVK	GNNLDSYTD	n.d. n.d. n.d. n.d. n.d. n.d.
GFDLNEYGIS	VIYSDGRRTFYGDSVK	GRAAGTFDV	-0.32 -0.08 -0.15 -0.22 -0.58 -0.21
GFELNSYGIS	VIYADGRRTFYDDSVK	GKAAGTFDS	-0.34 -1.70 n.d. -1.18 -1.24 -0.86
GFRLNQYGIS	VIYSDGKRTFYGDSVK	GWAAGTFDS	0.20 1.32 0.48 0.48 -0.22 1.10
GFTLNSYGIS	VIYSDGRRTMYGDSVK	GREAGTFDS	n.d. 1.71 0.19 0.75 0.36 0.12
KFSLNNYGIS	VIYSDGRRTFYTDSVK	GRTAGTFDS	1.59 n.d. 1.55 1.70 n.d. 2.07
GFTLNSYGIS	VIYSDGRRTAYIDSVK	GRAAGTFTS	n.d. n.d. n.d. n.d. n.d. n.d.
GFSLREYGIS	VIYSDGRRTFYTDSVK	GRAAGTFLS	n.d. n.d. n.d. n.d. n.d. 2.47
TFTLNSYGIS	VIYSDGRRTFYGDSVK	GRYAGTFDQ	0.46 n.d. n.d. n.d. n.d. n.d.
GEDMQEYGIS	VIYADGLRAAYSDNFK	GGLGGTFDM	n.d. n.d. 1.76 n.d. n.d. 0.56
GFDLNEYGIS	VIYADGRRTAYTDSVK	GHLAGTFDL	-0.41 -0.69 -0.83 -0.69 -0.50 -0.36
GFTLNEYGIS	VIYSDKRRTFYADSVK	GRDAGTFDS	n.d. n.d. n.d. n.d. n.d. n.d.
GFNLEDYGIS	VIYADGKRMSYQEAVK	GQNSGVIVN	n.d. n.d. n.d. n.d. n.d. n.d.
GFTLNEYGIS	VIYSDGLRTFYSDSVK	GRAAGTFDS	0.94 0.92 1.03 1.30 1.67 1.12
GFSLNSYGIS	VIYSDGRRTFYADSVK	GNAAGTFDT	0.01 0.23 0.09 -0.24 -0.21 -0.04

Further variants, results first:

log10 Kd (nM) by replicate	CDR-H1	CDR-H2	CDR-H3
n.d. n.d. n.d. n.d. n.d. n.d.	GFHLNSYGIS	VIYSDGRRTFYIDNHK	GRAAGTFPV
-0.33 -0.15 -0.32 -0.59 -0.46 -0.49	GFDLNEYGIS	VIYADGRRTAYADSVK	GEAAGTFDM
0.11 -0.58 -0.56 -0.48 -0.66 -0.43	GFKLNSYGIS	VIYADGRRTFYGDSVK	GEAAGTFDS
n.d. 2.01 0.91 1.52 2.99 1.29	GFTINSYGIS	VIYSDGRRTFYSDSVK	GSAAGTFDS
0.94 0.35 0.60 -0.03 0.53 0.60	GFELNEYGIS	VIYSDGRRTFYGDSVK	GQTAGTFDS
0.97 0.84 0.29 0.92 0.18 0.22	GFSLNSYGIS	VIYSDGRRTFYADSVK	GKAAGTFDK
n.d. 2.55 n.d. n.d. n.d. n.d.	GFTLNDYGDS	VIYSDGRRTQYIDSVK	GRAAGTFDS
n.d. n.d. n.d. n.d. n.d. n.d.	DFTLNSYGIS	VIYSDGRRTFYGDSVK	GNVACTFDS
0.14 0.70 n.d. n.d. -0.12 1.62	GFSLNSYGIS	VIYSDGRRTFYADSVK	GRQAGTFDT
n.d. n.d. n.d. n.d. n.d. n.d.	GYDLEEYGIS	VIYADGRRASYIENVK	DGVNDGVFV
n.d. n.d. n.d. n.d. n.d. n.d.	GFTLNSYGIS	VIYSDGRRTFYGDSVK	GRAAGTFIS
0.60 0.34 0.35 0.35 0.28 0.25	GFSLNSYGIS	VIYSDGRRTFYGDSVK	GRTAGTFDM
1.66 1.12 1.45 1.66 0.83 0.99	GFTLNSYGIS	VIYSDGRRTFYSDKVK	GRAAGTFDS
-0.21 -0.33 -0.08 -0.26 -0.29 0.08	GFNLNEYGIS	VIYADGRRTFYADSVK	GKAAGTFDV
1.08 1.13 -0.08 -0.05 0.64 0.98	GFTLNSYGIS	VIYSDGQRTFYADDVK	GQAAGTFDK
n.d. n.d. n.d. 2.83 n.d. n.d.	GFTLNSYGIS	VIYSDGLRTFYIDSVK	GRIAGTFDS
-0.23 -0.08 -0.46 -0.23 -0.70 -0.51	GFDLNEYGIS	VIYADGKRTSYADSVK	GNQAGTFDV
0.62 0.60 n.d. 1.27 0.71 0.87	GFDLNSYGIS	VIYSDGKRTFYGDSVK	GRSAGTFDS
n.d. n.d. n.d. n.d. n.d. n.d.	GNTLSSYGIS	VIYSDGRRTFYGDSVK	GREPGPFDS
-0.10 -0.36 -0.53 0.21 -0.24 -0.47	GFELNSYGIS	VIYSDGKRTFYGDSVK	GRVAGTFDS

Extract of 5 entries:

CDR-H1	CDR-H2	CDR-H3	log10 Kd (nM) by replicate
GFSLREYGIS	VIYSDGRRTFYTDSVK	GRAAGTFLS	n.d. n.d. n.d. n.d. n.d. 2.47
GFKLNSYGIS	VIYADGRRTFYGDSVK	GEAAGTFDS	0.11 -0.58 -0.56 -0.48 -0.66 -0.43
GFELNSYGIS	VIYADGRRTFYDDSVK	GKAAGTFDS	-0.34 -1.70 n.d. -1.18 -1.24 -0.86
GFELNSYGIS	VIYSDGKRTFYGDSVK	GRVAGTFDS	-0.10 -0.36 -0.53 0.21 -0.24 -0.47
GFTLNSYGIS	VIYSDGQRTFYADDVK	GQAAGTFDK	1.08 1.13 -0.08 -0.05 0.64 0.98

Empty control strains, which show no peptide, gave a signal in 1% of pairings with all heavy chain designs; the median was 2.08 and 95% of these signals were weaker than 0.84. No background was subtracted. Of ten entries with the parent sequence, four were seen in most replicates (averages 0.34 to 2.37), three in one and three in none, so single entries are noisy. The range of this assay differs from that of the first round, and the authors advise against merging the two. In the paper, a design with two or fewer of six values counts as a poor binder.